Measured values taken from patent US20060094660A1, “Inhibitor of the shh signalling patway and a testosterone supressing agent for the treatment of cancer” (priority 2002, published 2006).

Assays:
[1] = system: ventral prostate (VP)
Experimental: Serum-free organ culture of P0 Wistar rat VPs was performed as previously described (Sugimura et al., 1996). […] The two-dimensional area and perimeter of organs was measured from live captured images using NIH Image software.
P0 VPs were grown in vitro for five days in the presence (+) or absence (−) of T and with (+) or without (−) 100 μg ml^−1 anti-SHH antibody (5E1) (FIG. 4A), after which their two-dimensional area was measured (FIG. 4B).
Effect of exogenous SHH on VP growth and branching. The effects of adding recombinant SHH to VPs grown in vitro was examined (FIG. 10). VPs were grown for 3 days −/+T and −/+recombinant SHH protein (n=6).

[2] = system: ventral prostate (VP); assay: Organ culture of P0 rat VPs: BrdU incorporation, mitotic/proliferative index; type: cell-based
Experimental: Anti-CK14 antibody was diluted at 1:100, and anti-p63 antibody (Santa Cruz Biotechnologies Inc., USA) was diluted at 1:500. […] Mitotic indices were calculated by counting the number of pan-cytokeratin-positive epithelial cells that were also BrdU-positive.
[…] […] The percentage of proliferating cells was scored from three images of the peripheral tips of the organs (distal), and three images of the ducts closest to the urethra (proximal), totalling 27 distal and proximal counts for each treatment group.
The proliferative index of the epithelial and mesenchymal cell compartments was calculated for VPs cultured −/+T and −/+SHH after the addition of BrdU (FIG. 10D).

SMILES: CC1=C2C[C@H]3[C@@H](CC=C4C[C@@H](O)CC[C@@]43C)[C@@H]2CC[C@]12O[C@@H]1C[C@H](C)CN[C@H]1[C@H]2C [Cy, cyclopamine]
- growth reduction (two-dimensional area) [1]: 16% and 27%
- reduction in T-induced growth of VPs [1]: 50%
- percentage of proliferating cells in ducts proximal to the UR [2]: No significant difference

“And” between values parts separate entries of the source, which are not always exact repeats. Identical values can stand only once.
